# Test results taken from PubChem BioAssay AID588674 (Broad Institute, 2011).
# Only a part is listed here, and it is no random draw. Activity calls are given as the source filed them.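 How the source made its calls: active means mean inhibition of at least 75% with every replicate also reaching 75%; inconclusive means mean inhibition at least 75% but some replicate below; inactive means mean inhibition below 75%.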
# Assay: Shn3 3'UTR reporter decrease in osteoblasts – cell-based, Clone20 osteoblasts, firefly luciferase, set 2, Schnurri-3 inhibitor project, primary screen (AID 588674);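 further: 0% = median of neutral control wells and 100% = pilot-screen positive control compound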
# Conditions: Clone20 osteoblast Shn3 3'UTR firefly luciferase, 24 h; at 12.5 µM; hits give high values
row,Compound,inhibition
1,Clc1n[nH]nc1-c1nn[nH][15n]1,inactive: 6.39%
2,O=P1(N(CCCl)CCCl)NCCC(C(F)(F)F)O1 (stereo not given),inactive: 6.38%
3,COc1ccccc1CNC(=O)COC(=O)C(O)(c1ccccc1)c1ccccc1,inactive: -3.16%
4,CN(C(=O)Cc1ccc(Cl)c(Cl)c1)[C@@H]1CCCC[C@H]1N1CCCC1,inactive: 3.65%
5,CC(C)/C=N\N=C(\N)N[N+](=O)[O-],inactive: -9.6%
6,CC1(CBr)Cn2c(nc3ccccc3c2=O)S1 (stereo not given),inactive: -17.3%
7,CS(=O)(=O)c1ccc(Cl)c(NC(=O)COC(=O)C(O)(c2ccccc2)c2ccccc2)c1,inactive: 12.1%
8,COc1cc(C(=O)NCC2(N3CCOCC3)CCCCC2)cc(Cl)c1OC(C)C,inactive: 32.4%
9,O=[As](O)(O)c1cccnc1,inactive: -4.19%
10,O=[As](O)(c1cccc(O)c1)c1cccc(O)c1,inactive: 3.36%
11,Cc1cccc(OCC(=O)OC2CN3CCC2CC3)c1 (stereo not given),inactive: 3.11%
12,Cc1ccc(NCCc2c([N+](=O)[O-])cc([N+](=O)[O-])cc2[N+](=O)[O-])cc1,inactive: -32.3%
13,Nc1cccc2c([As](=O)(O)O)cccc12,inactive: 16.8%
14,CCCOP(=S)(Nc1nc(N)cc(=O)[nH]1)OCCC,inactive: 4.92%
15,CCOP(=O)(Nc1cccc2ccccc12)OCC,inactive: 21.9%
16,COc1cc(C2NCCC3(OCCO3)C2(C)C)cc(OC)c1OC (stereo not given),inactive: -3.2%
17,O=P(Nc1nccs1)(c1ccccc1)c1nc2ccccc2s1 (stereo not given),inactive: -10.5%
18,O=P(Nc1nccs1)(Oc1ccccc1)Oc1ccccc1,inactive: -15.5%
19,CCOP1(=S)c2c(C)nn(CCC#N)c2N=C(c2ccccc2F)N1C (stereo not given),inactive: 32.5%
20,CS(=O)(=O)c1cc([N+](=O)[O-])c2no[n+]([O-])c2c1,inactive: 6.3%
21,O=C(O)COc1ccc([As](=O)(O)O)cc1[N+](=O)[O-],inactive: 5.93%
22,Nc1ccccc1[As](=O)(O)c1ccccc1,inactive: -13.3%
23,NC(=O)Nc1ccc([As](=O)(O)O)cc1,inactive: -8.48%
24,CN(C(=O)Cc1ccccc1)[C@@H]1CC[C@]2(CCCO2)C[C@H]1N1CCCC1,inactive: -1.23%

row,Compound,inhibition
1,CCOP1(=S)c2c(C)nn(CCC#N)c2N=C(c2ccc(F)cc2)N1C (stereo not given),inactive: -0.772%
2,N#CCCN(C(=O)COC(=O)C(O)(c1ccccc1)c1ccccc1)c1ccc(F)cc1,inactive: -16%
3,CN(C(=O)Cc1ccc(Cl)c(Cl)c1)[C@H]1CC[C@@]2(CCCO2)C[C@@H]1N1CCCC1,inactive: 0.089%
4,CN(C)C(=O)c1cc([N+](=O)[O-])cc2c1-c1c(cc([N+](=O)[O-])cc1[N+](=O)[O-])C2=O,inactive: 56.1%
5,O=[N+]([O-])c1ccc2c(c1)nnn2O,inactive: -15.3%
6,COc1cc(C(=O)NCC2(N3CCOCC3)CCCCC2)ccc1OCC(C)C,inactive: 4.67%
7,O=[N+]([O-])c1ccc(-c2cc([N+](=O)[O-])c(O)c([N+](=O)[O-])c2)cc1,inactive: -26.2%
8,O=[As](O)(c1ccc(O)cc1)c1ccccc1O,inactive: -9.38%
9,C[As](=O)(O)c1cccc(C(=O)O)c1,inactive: 0.0355%
10,Cc1ccc(OP(=O)(Nc2ccc([N+](=O)[O-])cn2)Oc2ccc(C)cc2)cc1,inactive: -15.6%
11,Cc1ccc2nc3c(c(C)c2c1)CC(C(Cl)Cl)S3 (stereo not given),inactive: -41.5%
12,ClCCSc1nnc(-c2cccnc2)o1,inactive: -27.5%
13,CC(C)c1ccc(OP(=O)(Nc2ccccn2)Oc2ccccc2F)cc1 (stereo not given),inactive: 15%
14,COC(=O)C1(C)COP(=O)(N2CCCCCC2)OC1 (stereo not given),inactive: 75%
15,O=[N+]([O-])c1cc([N+](=O)[O-])c(-c2ccn[nH]2)s1,inactive: -14.4%
16,CCN(CC)C(=S)SC(NC=O)C(Cl)(Cl)Cl (stereo not given),inactive: 64.2%
17,O=C(OC1CN2CCC1CC2)c1cccc2[nH]cnc12 (stereo not given),inactive: 3.72%
18,CC(C)NC(=O)NP(=O)(Oc1ccccc1)Oc1ccccc1,inactive: -13.8%
19,Cc1c2c(nc3ccccc13)SC(C(Cl)Cl)C2 (stereo not given),inactive: -15.1%
20,Cc1cc(=O)[nH]c(N[N+](=O)[O-])n1,inactive: -5.35%
21,O=C(OC1CN2CCC1CC2)C12CC3CC(CC(C3)C1)C2 (stereo not given),inactive: -2.86%
22,O=P1(N(CCCl)CCCl)OCCCN1CCCl (stereo not given),inactive: -6.47%
23,O=P1(N(CCCl)CCCl)Nc2ccccc2N1,inactive: -10.1%
24,COc1cc(I)ccc1[As](=O)(O)O,inactive: -9.54%

row,Compound,inhibition
1,COc1ccc2nc(NP(=O)(c3ccccc3)c3ccccc3)sc2c1,inactive: 11.2%
2,O=[N+]([O-])c1cc(Oc2ccc([N+](=O)[O-])cc2C(F)(F)F)cc([N+](=O)[O-])c1,inactive: 10%
3,COc1ccc(N/C(=N/P(=O)(N2CCOCC2)N2CCOCC2)N2CCOCC2)cc1,inactive: -6.21%
4,COC(=O)C1(C)COP(=O)(N2CCCC2)OC1 (stereo not given),inactive: 11.7%
5,COP1(=S)c2c(C)nn(CCC#N)c2N=C(c2ccc(F)cc2)N1C (stereo not given),inactive: -12.2%
6,O=C(O)C(=O)c1ccc(N(CCCl)CCCl)cc1,inactive: -25.3%
7,O=C(Nc1ccncc1[N+](=O)[O-])c1ccc([N+](=O)[O-])cc1[N+](=O)[O-],inactive: -10.8%
8,O=C(COc1ccccc1)OC1CN2CCC1CC2 (stereo not given),inactive: -15.5%
9,CSc1ccc(Nc2c([N+](=O)[O-])cc([N+](=O)[O-])cc2[N+](=O)[O-])cc1,inactive: 64.7%
10,O=C(OC1CN2CCC1CC2)c1cccc([N+](=O)[O-])c1 (stereo not given),inactive: -0.994%
11,CCOC(=O)c1ccc(NC(=O)C(C)(CCl)SC)cc1 (stereo not given),inactive: -47%
12,CCC(C)N(CC(C)C)C(=S)SC(NC(C)=O)C(Cl)(Cl)Cl (stereo not given),inactive: -6.33%
13,O=C(O)C(O)c1ccc(N(CCCl)CCCl)cc1 (stereo not given),inactive: 16.3%
14,CCOC(=O)Nc1ccc([As](=O)(O)O)c(O)c1,inactive: -1.97%
15,CC1CCNP(=O)(N(CCCl)CCCl)O1 (stereo not given),inactive: 13.4%
16,COP(=O)(OC)N1CC1c1ccccc1 (stereo not given),inactive: -25.9%
17,Cc1cc(SC(NC(=O)c2ccccc2)C(Cl)(Cl)Cl)nc(C(C)C)n1 (stereo not given),inactive: -3.63%
18,CCCCOc1ccc(C(=O)NCC2(N3CCCCC3)CCCCC2)cc1OC,inactive: -13.2%
19,CCOC(=O)Nc1cccc([As](=O)(O)O)c1,inactive: -14.5%
20,Cc1cc(SC(NC=O)C(Cl)(Cl)Cl)ncn1 (stereo not given),inactive: -0.817%
21,O=P(Nc1ccccn1)(c1cccc2ccccc12)c1cccc2ccccc12,inactive: -9.74%
22,O=[N+]([O-])c1ccc(Nc2ccc(Oc3ccc([N+](=O)[O-])cc3[N+](=O)[O-])cc2)c([N+](=O)[O-])c1,inactive: 1.35%
